System: LuCaP 35V xenograft
Assay: LuCaP 35V subcutaneous xenograft tumor growth
Conditions: four-week ip treatment; A12 alone 40 μg/kg as printed; docetaxel 10 mg/kg; docetaxel 10 mg/kg + A12

In the case of “IMC-A12: human IgG1 anti-IGF-IR antibody; heavy chain variable domain SEQ ID NO:41, light chain variable domain SEQ ID NO:51”, the “tumor growth rate during treatment” value is reported as 192.7±35.6 mm^3/week.
